# Some of these compounds have results that are not shown, active ones among them.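 Grown in 96-well plates, cells were treated for 48 hours with each compound at five concentrations. Insufficient inhibition: endpoint recorded as highest concentration tested. At the GI50, growth is halved. TGI: total growth inhibition.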
# Key:
# Assay in all cases: NCI anticancer screen, dose series, 48 h
# [1] = test system: CAKI-1 renal
# [2] = test system: UACC-62 melanoma
# [3] = test system: HCT-15 colon
# [4] = test system: UACC-257 melanoma
# [5] = test system: HCC-2998 colon
# [6] = test system: SF-268 CNS
# [7] = test system: MDA-MB-435
# [8] = test system: EKVX NSCLC
# [9] = test system: MOLT-4 leukemia
# [10] = test system: SNB-75 CNS
# [11] = test system: TK-10 renal
# [12] = test system: UO-31 renal
# [13] = test system: MALME-3M melanoma
# [14] = test system: A549 NSCLC
# [15] = test system: U251 CNS
# [16] = test system: LOX IMVI melanoma
# [17] = test system: MCF7 breast
# [18] = test system: NCI-H522 lung
# [19] = test system: M14 melanoma
# [20] = test system: SF-539 CNS
# [21] = test system: K-562 leukemia
# [22] = test system: NCI-H23 lung
# [23] = test system: A498 renal
# [24] = test system: SF-295 CNS
# [25] = test system: PC-3 prostate
# [26] = test system: NCI-H322M lung
# [27] = test system: NCI-H226 lung
# [28] = test system: NCI-H460 lung
# [29] = test system: RPMI-8226 leukemia
# [30] = test system: SN12C renal
# [31] = test system: SNB-19 CNS
# [32] = test system: OVCAR-5 ovarian
# [33] = test system: DU-145 prostate
# [34] = test system: MDA-MB-231 breast
# [35] = test system: SK-MEL-5 melanoma
# [36] = test system: COLO 205 colon
# [37] = test system: IGROV1 ovarian
# [38] = test system: KM12 colon
# [39] = test system: 786-0 renal
# [40] = test system: SK-MEL-28 melanoma
# [41] = test system: HCT-116 colon
# [42] = test system: T-47D breast
# [43] = test system: ACHN renal
# [44] = test system: OVCAR-4 ovarian
# [45] = test system: CCRF-CEM leukemia
# [46] = test system: HS 578T breast
# [47] = test system: MDA-N
# [48] = test system: NCI/ADR-RES ovarian
# [49] = test system: SW-620 colon
# [50] = test system: RXF 393 renal
# [51] = test system: SK-MEL-2 melanoma
# [52] = test system: SR leukemia
# [53] = test system: OVCAR-8 ovarian
# [54] = test system: HT29 colon
# [55] = test system: OVCAR-3 ovarian
# [56] = test system: HOP-62 NSCLC
# [57] = test system: SK-OV-3 ovarian
# [58] = test system: HOP-92 NSCLC
# [59] = test system: HL-60(TB) leukemia
compound,measurement,setting,value
O=C(OC1CN2CCC1CC2)C(O)(/C=C/c1ccccc1)c1ccccc1 (stereo not drawn),GI50,[1],> 100 µM
same,TGI,[1],> 100 µM
same,GI50,[2],> 100 µM
same,TGI,[2],> 100 µM
same,GI50,[3],> 100 µM
same,TGI,[3],> 100 µM
same,GI50,[4],> 100 µM
same,TGI,[4],> 100 µM
same,GI50,[5],> 100 µM
same,TGI,[5],> 100 µM
same,GI50,[6],> 100 µM
same,TGI,[6],> 100 µM
same,GI50,[7],> 100 µM
same,TGI,[7],> 100 µM
same,GI50,[8],> 100 µM
same,TGI,[8],> 100 µM
same,GI50,[9],> 100 µM
same,TGI,[9],> 100 µM
same,GI50,[10],45.3 µM
same,TGI,[10],> 100 µM
same,GI50,[11],> 100 µM
same,TGI,[11],> 100 µM
same,GI50,[12],> 100 µM
same,TGI,[12],> 100 µM
same,GI50,[13],18 µM
same,TGI,[13],> 100 µM
same,GI50,[14],> 100 µM
same,TGI,[14],> 100 µM
same,GI50,[15],> 100 µM
same,TGI,[15],> 100 µM
same,GI50,[16],> 100 µM
same,TGI,[16],> 100 µM
same,GI50,[17],> 100 µM
same,TGI,[17],> 100 µM
same,GI50,[18],> 100 µM
same,TGI,[18],> 100 µM
same,GI50,[19],> 100 µM
same,TGI,[19],> 100 µM
same,GI50,[20],> 100 µM
same,TGI,[20],> 100 µM
same,GI50,[21],> 100 µM
same,TGI,[21],> 100 µM
same,GI50,[22],> 100 µM
same,TGI,[22],> 100 µM
same,GI50,[23],83.5 µM
same,TGI,[23],> 100 µM
same,GI50,[24],> 100 µM
same,TGI,[24],> 100 µM
same,GI50,[25],> 100 µM
same,TGI,[25],> 100 µM
same,GI50,[26],> 100 µM
same,TGI,[26],> 100 µM
same,GI50,[27],> 100 µM
same,TGI,[27],> 100 µM
same,GI50,[28],> 100 µM
same,TGI,[28],> 100 µM
same,GI50,[29],> 100 µM
same,TGI,[29],> 100 µM
same,GI50,[30],> 100 µM
same,TGI,[30],> 100 µM
same,GI50,[31],> 100 µM
same,TGI,[31],> 100 µM
same,GI50,[32],> 100 µM
same,TGI,[32],> 100 µM
same,GI50,[33],> 100 µM
same,TGI,[33],> 100 µM
same,GI50,[34],> 100 µM
same,TGI,[34],> 100 µM
same,GI50,[35],> 100 µM
same,TGI,[35],> 100 µM
same,GI50,[36],> 100 µM
same,TGI,[36],> 100 µM
same,GI50,[37],> 100 µM
same,TGI,[37],> 100 µM
same,GI50,[38],> 100 µM
same,TGI,[38],> 100 µM
same,GI50,[39],> 100 µM
same,TGI,[39],> 100 µM
same,GI50,[40],> 100 µM
same,TGI,[40],> 100 µM
same,GI50,[41],> 100 µM
same,TGI,[41],> 100 µM
same,GI50,[42],> 100 µM
same,TGI,[42],> 100 µM
same,GI50,[43],> 100 µM
same,TGI,[43],> 100 µM
same,GI50,[44],> 100 µM
same,TGI,[44],> 100 µM
same,GI50,[45],> 100 µM
same,TGI,[45],> 100 µM
same,GI50,[46],> 100 µM
same,TGI,[46],> 100 µM
same,GI50,[47],> 100 µM
same,TGI,[47],> 100 µM
same,GI50,[48],> 100 µM
same,TGI,[48],> 100 µM
same,GI50,[49],> 100 µM
same,TGI,[49],> 100 µM
same,GI50,[50],> 100 µM
same,TGI,[50],> 100 µM
same,GI50,[51],> 100 µM
same,TGI,[51],> 100 µM
same,GI50,[52],> 100 µM
same,TGI,[52],> 100 µM
same,GI50,[53],> 100 µM
same,TGI,[53],> 100 µM
same,GI50,[54],47.4 µM
same,TGI,[54],> 100 µM
same,GI50,[55],> 100 µM
same,TGI,[55],> 100 µM
same,GI50,[56],> 100 µM
same,TGI,[56],> 100 µM
same,GI50,[57],> 100 µM
same,TGI,[57],> 100 µM
same,GI50,[58],30.6 µM
same,TGI,[58],95.2 µM
same,GI50,[59],> 100 µM
same,TGI,[59],> 100 µM

# — PubChem BioAssay (NCI)
